Reference: US11716992B2, “5A5B6C tricyclic spirolactone derivative, preparation method therefor and use thereof” (NANKAI UNIVERSITY, priority 2017, dated 2023)

Test system: Apis mellifera ligustica Spin
Conditions: for Death number after 24 h / Death number after 48 h: per replicate of 10 bees
[1] = dosage 7.08 × 10^−3 μg a.i./bee

Ryanodine [reference compound]
Death rate after 48 h (%) (dosage 0.102 μg a.i./bee): 65.0% | Death number after 24 h (dosage 0.102 μg a.i./bee): 1 and 0 | Death number after 48 h (dosage 0.102 μg a.i./bee): 6 and 7 | Death rate after 48 h (%) (dosage 0.275 μg a.i./bee): 85.0% | Death number after 24 h (dosage 0.275 μg a.i./bee): 2 and 1 | Death number after 48 h (dosage 0.275 μg a.i./bee): 7 and 10 | Death rate after 48 h (%) (dosage 0.395 μg a.i./bee): 100% | Death number after 24 h (dosage 0.395 μg a.i./bee): 4 and 8 | Death number after 48 h (dosage 0.395 μg a.i./bee): 10 | Death rate after 48 h (%) (dosage 1.19 μg a.i./bee): 90.0% | Death number after 24 h (dosage 1.19 μg a.i./bee): 2 and 1 | Death number after 48 h (dosage 1.19 μg a.i./bee): 8 and 10 | Death rate after 48 h (%) (dosage 1.54 μg a.i./bee): 100% | Death number after 24 h (dosage 1.54 μg a.i./bee): 4 and 5 | Death number after 48 h (dosage 1.54 μg a.i./bee): 10 | Death rate after 48 h (%) (dosage 3.65 μg a.i./bee): 100% | Death number after 24 h (dosage 3.65 μg a.i./bee): 1 and 5 | Death number after 48 h (dosage 3.65 μg a.i./bee): 10 | Death rate after 48 h (%) [1]: 0% | Death number after 24 h [1]: 0 | Death number after 48 h [1]: 0 | Death rate after 48 h (%) (dosage 8.80 × 10^−3 μg a.i./bee): 30.0%

“And” between values parts separate entries of the source, which are not always exact repeats. Equal entries are not always repeated. Where two headings read alike, the source gives them in different places.
